This passage reports IC50 results from patent US4511504A, “Carboxyalkyl peptide derivatives” (G.D. Searle & Co., priority 1983, dated 1985).

The chains behind the UniProt entries cited, without tags or fusion partners. Residues count along the entry.
UniProt P03956, 100-469 limits assumed: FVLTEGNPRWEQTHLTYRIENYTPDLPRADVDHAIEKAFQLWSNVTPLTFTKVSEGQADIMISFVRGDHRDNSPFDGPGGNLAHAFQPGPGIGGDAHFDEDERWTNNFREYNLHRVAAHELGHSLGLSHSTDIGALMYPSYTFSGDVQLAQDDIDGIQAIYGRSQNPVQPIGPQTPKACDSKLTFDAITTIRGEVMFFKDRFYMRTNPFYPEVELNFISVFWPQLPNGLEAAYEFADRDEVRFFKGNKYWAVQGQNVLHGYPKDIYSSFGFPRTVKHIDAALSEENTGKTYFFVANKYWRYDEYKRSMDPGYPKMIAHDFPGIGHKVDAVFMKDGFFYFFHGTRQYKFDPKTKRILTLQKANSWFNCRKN

The assay concerns the target Human Rheumatoid Synovial Collagenase (Homo sapiens, UniProt P03956). The assay can be described thus: Collagenase inhibition, procedure of Cawston and Barrett (acetyl 14C collagen hydrolysis). To be noted: read-out: IC50 (μM) Human Rheumatoid Synovial Collagenase; inhibitor concentration effecting 50% inhibition; 37° C., 16 hours, native acetyl 14C collagen, Tris HCl-CaCl2 pH 7.6; tested form: hydrate. The method, then: This was determined following the procedure of Cawston and Barrett, Anal. Biochem., 99, 340-345 (1979) whereby the 1 mM of the inhibitor being tested or dilutions thereof are incubated at 37° C. for 16 hours with native collagen and collagenase (buffered with Tris HCl--CaCl2; pH 7.6). The collagen is acetyl ^14 C collagen. The samples are centrifuged to sediment undigested collagen and an aliquot of the radiactive supernatant removed for assay on a scintillation counter as a measure of hydrolysis. The collagenase activity in the presence of 1 mM inhibitor, or a dilution thereof is compared to activity in a control devoid of inhibitor and the results reported as that inhibitor concentration effecting 50% inhibition of the collagenase.

For orientation: IC50 means the concentration that gives 50% inhibition. Take `CNC(=O)[C@H](Cc1ccc(OC)cc1)NC(=O)[C@H](CC(C)C)N[C@H](CCNC(=O)NCc1ccccc1)C(=O)O`: the IC50 is 1.3 µM.
